Results from PubChem BioAssay AID588627 (Johns Hopkins Ion Channel Center, 2011).
The list shows a part of the results, in another mix than the full data. Activity calls are given as the source filed them.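 Rule for the calls: active = calcium response B-score plate-corrected fluorescence ratio at least 3 library SD, with starting fluorescence B-score inside 5 SD; inactive = the rest.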

Protein sequences, listed by entry. Tags and fused reporters are not part of them.
UniProt Q96LB2, whole entry: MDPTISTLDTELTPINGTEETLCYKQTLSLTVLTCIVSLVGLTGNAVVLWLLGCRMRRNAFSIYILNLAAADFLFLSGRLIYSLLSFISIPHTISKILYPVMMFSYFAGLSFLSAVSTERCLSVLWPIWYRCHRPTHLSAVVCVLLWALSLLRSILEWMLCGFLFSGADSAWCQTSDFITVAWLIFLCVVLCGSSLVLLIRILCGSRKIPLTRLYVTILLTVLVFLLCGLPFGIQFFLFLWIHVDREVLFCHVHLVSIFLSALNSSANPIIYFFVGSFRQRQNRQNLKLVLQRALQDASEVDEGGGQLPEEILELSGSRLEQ

These compounds were tested against Mas-related G-protein coupled receptor member X1 (Homo sapiens) (UniProt Q96LB2) (assay: MrgX1 activation via calcium signaling – HEK293 cells, Fluo-4 calcium flux, primary screen (AID 588627)). Details: Fluo-4 calcium fluorescence, agonist mode, at 10 µM.
Procedure, shortened: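 Test system: HEK293 cells stably expressing human MrgX1 receptor; Input: fifteen thousand cells per well; Dosing: compound delivered in addition one of three; Schedule: overnight seeding, then 1 h dark dye loading; Technique: Fluo-4 NW calcium fluorescence; Measure: B-scored fluorescence response ratio; Controls: positive and negative controls per plate.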

SMILES	outcome
CCN1CCC(Nc2cccc(F)c2)CC1	inactive
CN(C)c1ccc(C(=O)NCC2(N3CCCCC3)CCCCC2)cc1	inactive
COc1cc(OC)cc(C(=O)NCC2(N3CCCCC3)CCCCC2)c1	inactive
Cc1ccc(C(=O)NCC2(N3CCCCC3)CCCCC2)o1	inactive
Fc1ccccc1NC1CCN(Cc2ccccc2)CC1	inactive
CCC(CO)(C(=O)OC1CN2CCC1CC2)c1ccccc1 (centres undefined)	inactive
COc1cccc(C(=O)N(c2cc(C)cc(C)c2)C2CCN(C(=O)OC(C)(C)C)CC2)c1	inactive
COc1cc(OC)cc(C(=O)NCC2(N3CCOCC3)CCCCC2)c1	inactive
CCCOc1ccc(C)cc1CN(CCCl)CCCl	inactive
CN1CCC(Nc2ccc(Cl)cc2)CC1	inactive
CCOc1ncccc1C(=O)NCC1(N2CCOCC2)CCCCC1	inactive
CN1CCC(Nc2ccc(F)c(Cl)c2)CC1	inactive
CCCOc1ccc(C(=O)NCC2(N(C)C)CCCCC2)cc1	inactive
CC(C)(C)OC(=O)N1CCC(Nc2ccccc2)CC1	inactive
O=C(O)C1(Nc2ccccc2)CCN(Cc2ccccc2)CC1	inactive
N/C(=N\O)c1c(N)no[n+]1[O-]	inactive
CCOC(=O)N1CCC(Nc2ccc(C)cc2)CC1	inactive
O=C(OC1CN2CCC1CC2)C1c2ccccc2C=Cc2ccccc21 (centres undefined)	inactive
CCc1cc(C(=O)NCC2(N3CCCCC3)CCCCC2)sc1C	inactive
COc1ccc(C(=O)NCC2(N3CCOCC3)CCCCC2)cc1OC	inactive

SMILES	outcome
c1ccc(CN2CCC(Nc3ccccc3)CC2)cc1	inactive
CCCN1CCC(Nc2cc(OC)cc(OC)c2)CC1	inactive
CN(C)C1(CNC(=O)c2cccc(C#N)c2)CCCCC1	inactive
CC(C)(C)OC(=O)N1CCC(N(C(=O)c2ccccc2)c2ccc(Cl)cc2)CC1	inactive
N#Cc1ccc(C(=O)NCC2(N3CCCCC3)CCCCC2)cc1	inactive
O=C(NCC1(N2CCCCC2)CCCCC1)c1cccc(C(F)(F)F)c1	inactive
COc1ccc(NC2CCN(C(=O)OC(C)(C)C)CC2)cc1	inactive
CN1CCN(CCOC(=O)C(O)(c2ccccc2)c2ccccc2)CC1	inactive
O=C(NCC1(N2CCOCC2)CCCCC1)c1cc(=O)[nH]c2ccccc12	inactive
COc1cc(C(=O)NCC2(N3CCCCC3)CCCCC2)ccc1OC(F)F	inactive
O=C(NCC1(N2CCCCC2)CCCCC1)c1ccc(OC(F)F)cc1	inactive
O=C(NCC1(N2CCCCC2)CCCCC1)c1cccc([N+](=O)[O-])c1	inactive
CCN1CCC(Nc2ccc(Cl)cc2)CC1	inactive
N#CC1(Nc2ccccc2)CCN(CCc2ccccc2)CC1	inactive
CN1CCC(Nc2cccc(F)c2)CC1	inactive
CCCOc1ccc(C(=O)NCC2(N(C)C)CCCCC2)cc1OC	inactive
COc1ccc(CN(CCCl)CCCl)cc1Cl	inactive
CN(C)c1cccc(C(=O)NCC2(N3CCCCC3)CCCCC2)c1	inactive
CC(C)c1ccc(NC2CCN(C(=O)OC(C)(C)C)CC2)cc1	inactive
COc1cc(OC)c(C(=O)NCC2(N(C)C)CCCCC2)cc1OC	inactive

SMILES	outcome
O=C(NCC1(N2CCOCC2)CCCCC1)c1cc2ccccc2o1	inactive
O=C(NCC1(N2CCCCC2)CCCCC1)c1ccc(Cl)nc1	inactive
Cc1cc(C)cc(N(C(=O)c2ccccc2)C2CCN(C(=O)OC(C)(C)C)CC2)c1	inactive
CCOC(=O)N1CCC(Nc2ccc(OC)cc2)CC1	inactive
O=C(OC1CN2CCC1CC2)C1c2ccccc2Oc2ccccc21 (centres undefined)	inactive
N#CC1(Nc2ccccc2)CCN(Cc2ccccc2)CC1	inactive
O=C(NCC1(N2CCCCC2)CCCCC1)c1ccc(=O)[nH]c1	inactive
O=C(NCC1(N2CCCCC2)CCCCC1)c1cccs1	inactive
COc1ccc(C(=O)NCC2(N3CCCCC3)CCCCC2)cc1	inactive
CC(C)(C)OC(=O)N1CCC(N(C(=O)c2ccccc2)c2ccc(F)cc2)CC1	inactive
COc1ccc(C(=O)NCC2(N3CCCCC3)CCCCC2)c(OC)c1OC	inactive
CSc1ccccc1C(=O)NCC1(N2CCCCC2)CCCCC1	inactive
COc1cc(C(=O)NCC2(N(C)C)CCCCC2)ccc1OC(F)F	inactive
CCOC(=O)N1CCC(Nc2cccc(C)c2)CC1	inactive
Cc1ccc(OCC(C)C)c(CN(CCCl)CCCl)c1	inactive
CCOc1ccc(C)cc1CN(CCCl)CCCl	inactive
O=C(NCC1(N2CCCCC2)CCCCC1)c1ccc(F)cc1	inactive
CCOC(=O)N1CCC(Nc2ccc(F)cc2)CC1	inactive
COc1ccc(NC2CCN(CCc3ccccc3)CC2)c(OC)c1	inactive
